The values that follow come from PubChem BioAssay AID1508602 (The Scripps Research Institute Molecular Screening Center, 2020).

The chains behind the UniProt entries cited, without tags or fusion partners.
UniProt Q8TDV0, whole entry: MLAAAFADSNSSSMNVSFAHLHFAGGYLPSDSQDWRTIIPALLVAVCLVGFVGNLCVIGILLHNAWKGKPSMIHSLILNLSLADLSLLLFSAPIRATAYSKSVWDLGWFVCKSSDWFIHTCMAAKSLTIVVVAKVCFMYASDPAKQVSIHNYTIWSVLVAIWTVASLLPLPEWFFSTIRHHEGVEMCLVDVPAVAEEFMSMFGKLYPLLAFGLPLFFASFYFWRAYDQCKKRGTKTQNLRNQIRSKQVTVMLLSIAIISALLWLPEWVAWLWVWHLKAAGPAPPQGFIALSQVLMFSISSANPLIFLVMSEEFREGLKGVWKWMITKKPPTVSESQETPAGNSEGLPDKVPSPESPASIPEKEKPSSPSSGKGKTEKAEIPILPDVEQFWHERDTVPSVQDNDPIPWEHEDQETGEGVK

This is a selection; strong and weak results do not stand in their true shares. The source made the active and inactive calls. No stated cut-off is given here; in the data, active means activation above about 4.9%; inactive means the rest.

For this assay, the target named is G-protein coupled receptor 151 (Homo sapiens) (UniProt Q8TDV0). The assay can be described thus: activators of human GPR151, primary screen, cell-based, PathHunter beta-arrestin, luminescence (AID 1508602).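 Further: 0% = median of compound wells and 100% = cells with positive control.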 The conditions noted are these: PathHunter beta-arrestin GPR151 cells, at 11.2 µM, active compounds read high.
`CN(CCCl)CCCl`: the activation was inactive: 0.158%.
